Patent publication US8946423B2, “Highly soluble salt of pyrroloquinoline quinone and method for producing the same” (Mitsubishi Gas Chemical Company, Inc., priority 2010, dated 2015)
Like-named read-outs stand apart in the source and are kept apart here.

Experiment: Dissolution test: salts dissolved up to saturation, solubility determined by absorbance at 450 nm
Method: The disodium salt of PQQ obtained by the method as described in Example 1 was used.
These salts were dissolved up to saturation at room temperature of 23 to 28° C., and these solutions each were diluted by 20 times or 400 times with a phosphate buffer having a pH of 7.5. For the diluted solutions each, an analysis of the ultraviolet-visible absorption spectra was carried out using a HITACHI U-2000 spectrometer.

Molecule	Relative Ratio (solubility) [or]	solubility of pyrroloquinoline, mmol/L	Relative Ratio (solubility) (Solvent Ethanol, relative to Disodium Salt of PQQ in water = 1) [or]	Relative Ratio (solubility) (Solvent Water, relative to Disodium Salt of PQQ in water = 1) [or]
2.4 Choline Salt of PQQ	≥ 21.5	≥ 171 or mmol/L		
C[N+](C)(C)CCO.C[N+](C)(C)CCO.C[N+](C)(C)CCO.O=C(O)c1cc(C(=O)O)c2c(n1)C(=O)C(=O)c1cc(C(=O)O)[nH]c1-2 [Tricholine Salt of PQQ]			≥ 21.5	≥ 21.5
